The source of these data is patent US20240108766A1 (Bayer, published 2024).

For assay [1], the target named is T1, human LRRC15 extracellular domain with C-terminal His tag (human, UniProt Q8TF66 22-538).
T1 construct: Recombinant, made in HEK293; the entry holds the extracellular domain and the His tag; SPR analyte; also called TPP-1545; hLRRC15 CT-His
T1 sequence: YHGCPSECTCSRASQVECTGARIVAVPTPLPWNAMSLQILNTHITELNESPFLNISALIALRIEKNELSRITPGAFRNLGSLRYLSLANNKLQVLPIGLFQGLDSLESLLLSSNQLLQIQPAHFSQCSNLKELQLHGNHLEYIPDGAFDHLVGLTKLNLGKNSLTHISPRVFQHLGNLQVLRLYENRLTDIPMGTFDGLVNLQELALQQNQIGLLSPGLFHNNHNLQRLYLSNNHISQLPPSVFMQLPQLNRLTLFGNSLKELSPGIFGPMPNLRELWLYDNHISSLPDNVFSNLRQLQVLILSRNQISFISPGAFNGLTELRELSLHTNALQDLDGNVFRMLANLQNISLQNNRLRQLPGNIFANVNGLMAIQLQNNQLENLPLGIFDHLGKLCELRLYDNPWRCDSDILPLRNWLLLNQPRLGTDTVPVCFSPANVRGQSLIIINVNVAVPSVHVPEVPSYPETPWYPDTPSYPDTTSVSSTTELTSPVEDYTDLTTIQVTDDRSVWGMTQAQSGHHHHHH
Kind of assay: SPR Biacore T200, 25°C, antibody captured, LRRC15 analyte. On the procedure: (§1) To assess the binding kinetics and affinity of anti-LRRC15 antibodies as well as their species cross-reactivity profile, binding assays were conducted using surface plasmon resonance (SPR). Binding assays were performed on a Biacore T200 instrument at 25° C. using assay buffer HBS EP+, 1 mg/ml BSA, 300 mM NaCl, 0.05% NaN3. Antibodies were captured via anti-human Fc IgGs covalently amine coupled to a CM5 sensor chip and human, mouse and cynomolgus LRRC15 were used as analytes in a concentration series from 1.56-200 nM in multi cycle kinetics mode. To obtain reliable dissociation rate constants (kd) the dissociation rate was prolonged from 2.000 seconds to 12.000 seconds for two concentrations of antigen injection (25 nM and 200 nM). Obtained sensorgrams were fitted to a 1:1 Langmuir binding model to derive kinetic data.
On the technique in general: In SPR one partner is held on a chip, and binding of the other changes the refractive index at the surface.

Assay [2] has as its target T2, murine LRRC15 extracellular domain with C-terminal His tag (mouse, UniProt Q80X72 22-536).
T2 construct: Recombinant, made in HEK293; the entry holds the extracellular domain and the His tag; SPR analyte; also called TPP-9045
The description is as above. How it is done: as §1

Assay [3] concerns the target T3, cynomolgus (Macaca fascicularis) LRRC15 extracellular domain with C-terminal His tag (cynomolgus monkey (Macaca fascicularis), UniProt Q8TF66 22-538 (human entry)).
T3 construct: Recombinant, made in HEK293; the entry holds the extracellular domain and the His tag; SPR analyte; also called TPP-9046
T3 chain: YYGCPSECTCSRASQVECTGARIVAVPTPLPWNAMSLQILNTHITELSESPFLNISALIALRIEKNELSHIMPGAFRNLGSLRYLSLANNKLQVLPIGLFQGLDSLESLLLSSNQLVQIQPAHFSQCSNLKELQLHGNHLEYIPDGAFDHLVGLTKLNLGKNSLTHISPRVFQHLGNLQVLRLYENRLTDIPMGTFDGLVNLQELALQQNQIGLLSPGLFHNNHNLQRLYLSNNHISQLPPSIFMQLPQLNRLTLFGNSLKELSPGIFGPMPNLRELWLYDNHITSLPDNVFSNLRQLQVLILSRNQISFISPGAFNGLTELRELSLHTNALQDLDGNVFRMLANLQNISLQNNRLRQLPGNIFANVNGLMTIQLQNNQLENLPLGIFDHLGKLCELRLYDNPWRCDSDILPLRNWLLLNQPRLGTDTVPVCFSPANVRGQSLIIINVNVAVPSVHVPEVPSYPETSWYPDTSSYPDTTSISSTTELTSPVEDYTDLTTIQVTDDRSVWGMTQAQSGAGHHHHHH
The assay is described as above. On the procedure: as §1

Assay [4] addresses T2, murine LRRC15 extracellular domain with …. Briefly: SPR (Example 6), overview table, repeats Table 9; head prints [M^-1]. On the procedure:
as §1

Numbering of substitutions follows the chain as printed.

B1: TPP-17405 (antibody, human IgG1, kappa, V domains shown)
VH: EVQLVQSGAEVKKPGASVKVSCKASGYKFSSYWIEWVKQAPGQGLEWIGEILPGSDTTNYNEKFKDRATFTSDTSINTAYMELSRLRSDDTAVYYCARDRGNYRAWFQYWGQGTLVTVSS
VL: DIQMTQSPSSLSASVGDRVTITCRASQRISSYLNWYQQKPGGAPKFLIYYASSLQSGVPSRFSGSGSGTDYTLTISSLQPEDFATYYCDQGLELPWTFGGGTKVEIKR
notes: also called 438H-M345-F05-hIgG1Kappa
A word on the koff: it is the first-order rate constant of dissociation. A word on the kon: it is a measure of how fast the partners come together. The term Kd denotes the equilibrium constant for the complex coming apart. On to B1, for which the values for the koff in assay [1], in assay [2] and in assay [3] were 6.1e-05 s⁻¹, 0.00011 s⁻¹ and 6.9e-05 s⁻¹, respectively. The kon came out at 72000 M⁻¹ s⁻¹ in assay [1], 42000 M⁻¹ s⁻¹ in assay [2] and 88000 M⁻¹ s⁻¹ in assay [3]. In addition, the Kd in assay [2] and in assay [4] was 2.7 nM each time.

B2: TPP-17418 (antibody, human IgG1, kappa, V domains shown)
VH: B1 VH with T57W
VL: B1 VL with R28S, D89Q, L92F, E93S
notes: also called 438H-M308-H05_B-hIgG1Kappa
With B2, the koff was found to be 3.5e-05 s⁻¹ in assay [1], 2.6e-05 s⁻¹ in assay [2] and 3.9e-05 s⁻¹ in assay [3]. The kon in assay [1] turned out to be 33000 M⁻¹ s⁻¹; in assay [2], 29000 M⁻¹ s⁻¹; in assay [3], 39000 M⁻¹ s⁻¹. Moreover, the dissociation constant Kd in assay [2] and in assay [4] was 0.89 nM throughout.

B3: TPP-17419 (antibody, human IgG1, kappa, V domains shown)
VH: B1 VH with T57W
VL: B1 VL with A25I, R28S, D89Q, E93R
notes: also called 438H-M307-H07-hIgG1Kappa
Take B3: the koff in assay [1] is 7.6e-05 s⁻¹; in assay [2], 5.6e-05 s⁻¹; in assay [3], 0.00011 s⁻¹. Further, the kon in assay [1] was found to be 22000 M⁻¹ s⁻¹; in assay [2], 24000 M⁻¹ s⁻¹; in assay [3], 44000 M⁻¹ s⁻¹. In addition, the Kd in assay [2] and in assay [4] was 2.3 nM each time.

B4: TPP-17073 (antibody, human IgG1, kappa, V domains shown)
VH: EVQLLESGGGLVQPGGSLRLSCAASGFTFSGYMMSWVRQAPGKGLEWVSGIYPSAGYTLYADSVKGRFTISRDNSKNTLYLQMNSLRAEDTAVYYCAREKAADLFGSYSEALDYWGQGTLVTVSS
VL: DIQMTQSPDSLSASVGDRVTITCRASQDVGSWLAWYQQKPGKAPKLLIFAASYLESGIPSRFSGSGSGTDFTLTISSLQPEDFATYYCQQANGFPLTFGGGTKVEIKR
notes: Variant of TPP-1633, human IgG1; also called 438H-M113-N15-hIgG1
In the case of B4, the results for the koff in assay [1], in assay [2] and in assay [3] were 9.1e-05 s⁻¹, 0.00024 s⁻¹ and 0.00011 s⁻¹, respectively. The kon in assay [1] was 440000 M⁻¹ s⁻¹; in assay [2] it was 97000 M⁻¹ s⁻¹; in assay [3] it was 600000 M⁻¹ s⁻¹. Besides, the Kd in assay [2] and in assay [4] was 2.5 nM each time.
